These are literature values, as cited in patent US7595398B2, “N-(5-membered aromatic ring)-amido anti-viral compounds” (SmithKline Beecham Corporation, priority 2005, dated 2009).

The conditions of the data set: human, in vivo; cited from earlier work.

Consider `NC(=O)c1ncn([C@@H]2O[C@H](CO)[C@@H](O)[C@H]2O)n1` [Ribavirin], for which the teratogenicity and embryotoxicity entry is “both teratogenic and embryotoxic”.
